The entries are a selection whose mix differs from that of the whole data set. Calls of active or inactive are those of the source.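 The calls were made as follows: active = activation above a cutoff set at the mean over all compounds plus 3 SD (cut at about 18% in these data); inactive = the rest.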
target: cAMP-dependent protein kinase catalytic subunit beta (Homo sapiens) + cAMP-dependent protein kinase type II-beta regulatory subunit (Homo sapiens) (UniProt P22694+P31323); experiment: compounds dissociating PKAc from R2B subunit – biochemical, fluorescence polarization, Cy5-IP20, human, primary screen (AID 504700); conditions: PKA-R2B holoenzyme dissociation, at 11.4 µM, active compounds read high, 0% DMSO only, 100% 113 µM cGMP, R2B truncated from residue 108, S112A mutant;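 also: higher means more holoenzyme dissociation and a rise in polarization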

By UniProt entry, the sequences of proteins in these tests, tags left out.
UniProt P31323, whole entry, looked up: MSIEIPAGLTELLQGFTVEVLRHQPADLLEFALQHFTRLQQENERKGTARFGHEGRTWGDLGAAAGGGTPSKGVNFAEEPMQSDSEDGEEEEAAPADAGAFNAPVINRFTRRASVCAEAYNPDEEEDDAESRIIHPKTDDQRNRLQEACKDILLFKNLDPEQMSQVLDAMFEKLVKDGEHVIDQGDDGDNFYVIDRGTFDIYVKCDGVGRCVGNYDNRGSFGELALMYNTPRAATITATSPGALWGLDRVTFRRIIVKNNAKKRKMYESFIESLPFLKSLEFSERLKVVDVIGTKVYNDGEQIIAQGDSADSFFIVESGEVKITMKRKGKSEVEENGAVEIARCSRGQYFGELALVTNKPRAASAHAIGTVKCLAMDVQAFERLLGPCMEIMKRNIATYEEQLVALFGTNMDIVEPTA

Which activation does the source give for `COc1ccc(OP(C)(=O)Nc2cccc(Br)c2)cc1` (stereo not drawn) here?
Its activation is inactive: 1.81%.

How did the activation turn out when `CN(C)CCOC(=O)C(O)(c1ccccc1)C1CCCCC1` (stereo not drawn) was run?
Its activation is inactive: 0.57%.

Which activation does the source give for `COc1ccc(NP(C)(=O)Oc2ccccc2OC)cc1` (stereo not drawn) here?
The activation was active: 19.5%.

Which activation does the source give for `O=[N+]([O-])c1ccc(OP2(=O)COCCO2)cc1` (stereo not drawn) here?
Its activation is inactive: 0.96%.

For `O=[N+]([O-])c1cc([N+](=O)[O-])c(NCC2CCS(=O)(=O)C2)c([N+](=O)[O-])c1` (stereo not drawn), which activation is on record?
The activation was inactive: -1.86%.

Which activation does the source give for `Cc1cc(-c2cccc3ccccc23)c(C)cn1.O=[N+]([O-])c1cc([N+](=O)[O-])c(O)c([N+](=O)[O-])c1` here?
The activation was inactive: -3.96%.

`Cc1c(C(c2ccc3c(c2)OCO3)c2c(C)n(C)n(-c3ccccc3)c2=O)c(=O)n(-c2ccccc2)n1C.O=[N+]([O-])c1cc([N+](=O)[O-])c(O)c([N+](=O)[O-])c1` was tested. Which activation did it give?
Its activation is inactive: -4.9%.

Which activation does the source give for `CP(=O)(Nc1ccc(SC(F)(F)F)cc1)Oc1ccc(F)cc1` (stereo not drawn) here?
The activation was inactive: -1.43%.

Which activation does the source give for `CCOP(C)(=S)SCC(=O)NC(C)(CC)C(=O)O` (stereo not drawn) here?
Its activation is inactive: 6.05%.

`CP(=O)(Nc1ccc2c(c1)OCCO2)Oc1ccccc1` (stereo not drawn) was tested. Which activation did it give?
The activation was inactive: 3.68%.

For `Cc1ccccc1NP(C)(=O)Nc1ccccc1C`, which activation is on record?
The activation was inactive: 3.86%.

For `CCN(CC)CC(O)COC(=O)C(O)(c1ccccc1)C1CCCCC1` (stereo not drawn), which activation is on record?
The activation was inactive: 1.41%.

Which activation does the source give for `COc1ccc(OP(C)(=O)Nc2ccc(Br)cc2)cc1` (stereo not drawn) here?
The activation was inactive: -14.1%.

For `COc1ccccc1OP(C)(=O)Nc1c(C)n(C)n(-c2ccccc2)c1=O` (stereo not drawn), which activation is on record?
The activation was inactive: -5.63%.

Which activation does the source give for `O=C(OCCCN1CCCC1)C(O)(c1ccccc1)C1CCCCC1` (stereo not drawn) here?
Its activation is inactive: 2.56%.

`CP(=O)(Oc1ccccc1)N1CCOC1=O` (stereo not drawn) was tested. Which activation did it give?
Its activation is inactive: 7.07%.

For `CCc1ccc(OP(C)(=O)Nc2cccnc2)cc1` (stereo not drawn), which activation is on record?
The activation was inactive: 2.09%.

`CC(C)(C)c1ccc(OP(C)(=O)O)cc1` was tested. Which activation did it give?
Its activation is inactive: 10.5%.

For `COc1ccccc1OP(C)(=O)Nc1ccccc1Br` (stereo not drawn), which activation is on record?
The activation was inactive: -9.27%.

`CP(=O)(Nc1ccc(Cl)cc1)Oc1ccc(F)cc1` (stereo not drawn) was tested. Which activation did it give?
The activation was inactive: 6.05%.

For `CN(C)C(=O)c1c([N+](=O)[O-])cc([N+](=O)[O-])cc1[N+](=O)[O-]`, which activation is on record?
Its activation is inactive: -13.8%.

For `CCOC(=O)c1ccc(NP(C)(=O)Oc2ccc(Cl)cc2)cc1` (stereo not drawn), which activation is on record?
Its activation is inactive: -0.75%.

For `CP(=O)(OC12CC3CC(CC(C3)C1)C2)OC12CC3CC(CC(C3)C1)C2`, which activation is on record?
The activation was inactive: -2.85%.

With `O=C1C(O)=C([N+](=O)[O-])C(=O)C(O)=C1[N+](=O)[O-]` as the compound, how does the activation read?
The activation was inactive: -9.68%.

With `Cc1cc(C)cc(OP(C)(=O)Nc2cccc(C(F)(F)F)c2)c1` (stereo not drawn) as the compound, how does the activation read?
The activation was inactive: -14.6%.

How did the activation turn out when `COc1ccccc1OP(C)(=O)Nc1ccc(C)c(C)c1` (stereo not drawn) was run?
Its activation is inactive: -11.7%.

With `COc1ccc(OP(C)(=O)Nc2ccccc2Br)cc1` (stereo not drawn) as the compound, how does the activation read?
The activation was inactive: -6.12%.

With `CP(=O)(OCCOc1ccccc1)OCCOc1ccccc1` as the compound, how does the activation read?
Its activation is inactive: -9.92%.

`CCCCCCCCCCCCCCCC1C[N+](C)(C)CCOP(C)(=O)O1` (stereo not drawn) was tested. Which activation did it give?
The activation was inactive: 4.78%.

Which activation does the source give for `CP(=O)(Nc1ccc(Cl)cc1Cl)Oc1ccccc1` (stereo not drawn) here?
The activation was inactive: -3.5%.

With `COc1ccccc1OP(C)(=O)Nc1ccc(Br)cc1` (stereo not drawn) as the compound, how does the activation read?
The activation was inactive: -6.57%.

With `COc1ccc(OP(C)(=O)Nc2ccccn2)cc1` (stereo not drawn) as the compound, how does the activation read?
Its activation is inactive: -5.05%.

How did the activation turn out when `CN(C)CCOC(=O)C(O)(c1ccccc1)C1CCCC1` (stereo not drawn) was run?
Its activation is inactive: -0.43%.

With `O=[N+]([O-])c1cc([N+](=O)[O-])c(Nc2ccccn2)c([N+](=O)[O-])c1` as the compound, how does the activation read?
Its activation is inactive: -2.64%.

Which activation does the source give for `Cc1c(NP(C)(=O)Oc2ccc(C(C)C)cc2)c(=O)n(-c2ccccc2)n1C` (stereo not drawn) here?
Its activation is inactive: 2.22%.

`CP(=O)(Nc1ccccn1)Oc1ccccc1` (stereo not drawn) was tested. Which activation did it give?
The activation was inactive: -15.2%.

How did the activation turn out when `COc1ccccc1OP(C)(=O)Nc1ccc(C)cc1C` (stereo not drawn) was run?
Its activation is inactive: -10.4%.

How did the activation turn out when `CCc1ccc(OP(C)(=O)O)cc1` was run?
Its activation is inactive: -0.95%.
